Data on one molecule can be found in paper PMC7866885, “A novel bicyclic 2,4-diaminopyrimidine inhibitor of Streptococcus suis dihydrofolate reductase” (PeerJ, 2021).

The assay concerns the target T1, S. suis dihydrofolate reductase (SsDHFR) (Streptococcus suis, UniProt A0A0H3N4C4).
T1 construct: gene dyr; full-length dhfr in pET15b (NdeI/BamHI, N-terminal vector tag kept); clarified lysate of E. coli BL21(DE3), not purified
T1 sequence (A0A0H3N4C4 1-170): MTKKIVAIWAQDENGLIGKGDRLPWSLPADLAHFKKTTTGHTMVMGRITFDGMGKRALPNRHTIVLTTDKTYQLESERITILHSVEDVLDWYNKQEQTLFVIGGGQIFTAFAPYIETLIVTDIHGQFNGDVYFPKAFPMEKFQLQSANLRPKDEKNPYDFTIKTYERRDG
The assay can be described thus: DHFR activity, NADPH consumption at […] nm. Format: biochemical. Conditions: 1 µM inhibitor; 0.1 mM dihydrofolate, 0.1 mM NADPH, 50 mM TES pH 7.0; lysate of overexpressing E. coli BL21(DE3), host DHFR background present.

`CN(Cc1cnc2nc(N)nc(N)c2n1)c1ccc(C(=O)N[C@@H](CCC(=O)O)C(=O)O)cc1` [methotrexate]: the “% activity at 1 μM” value was “Methotrexate and MMV675968 inhibited SsDHFR more effectively that trimethoprim”.
